According to US20210290788A1, “RADIOIMMUNOCONJUGATES AND DNA DAMAGE AND REPAIR INHIBITOR COMBINATION THERAPY” (Fusion Pharmaceuticals Inc., priority 2018, published 2021):

Tests used:
[1] = test system: Colo-205 (colorectal cancer) xenograft model; experiment: Example 1 in vivo synergy study, dosing schedule 1, Colo-205 xenograft; settings: [225Ac]-FPI-1434 50 nCi, BAY-1895344 20 mg/kg i.p. 2 days on, 5 days off for 28 days, first dose 24 hours after FPI-1434, up to 28 days
[2] = test system: A549 (NSCLC) xenograft model; experiment: Example 1 in vivo synergy study, dosing schedule 1, A549 xenograft; settings: [225Ac]-FPI-1434 200 nCi, BAY-1895344 20 mg/kg i.p. 2 days on, 5 days off for 28 days, first dose 24 hours after FPI-1434, up to 28 days
[3] = test system: Colo-205 (colorectal cancer) xenograft model; experiment: Example 2 in vivo synergy study, dosing schedule 2, Colo-205 xenograft; settings: FPI-1434 50 nCi, BAY-1895344 three times a week, 40 mg/kg gradually reduced to 20 mg/kg, first dose 24 hours after FPI-1434, up to 28 days
[4] = BAY-1895344 three times a week starting with 40 mg/kg; dose gradually reduced to 20 mg/kg

With `C[C@@H]1COCCN1c1cc(-c2ccnn2C)c2ccnc(-c3ccn[nH]3)c2n1` [BAY-1895344] the Relative tumor volume [1] was “did not demonstrate any reduction in reduction in tumor volume over time relative to Vehicle controls”, the Relative tumor volume [2] was “did not demonstrate any reduction in reduction in tumor volume over time relative to Vehicle controls” and the Relative tumor volume [3] was “some reduction in tumor volume over time”. The “Adverse observation in animals (somnolence)” value [4] was “transient animal somnolence at the higher doses”.
